Test results reported in PMC8308678, “Treatment with Micafungin in a Preterm Neonate with an Invasive Candida parapsilosis Infection after a Severe Terlipressin-Induced Skin Necrosis” (Pathogens, 2021).

Details: 20 μg/kg/h continuous infusion through epicutaneo-cava catheter, after twenty days; perineum and thighs

triglycyl-lysine vasopressin [terlipressin]
Skin adverse effect: severe necrotic skin lesions
